Biological target: human opioid receptor-like receptor (ORL-1) (Homo sapiens, UniProt P41146)
Conditions: read-out: Nociceptin Affinity calc Ki; membranes from recombinant HEK-293 cells expressing human ORL-1

Sequences of proteins named here, by UniProt entry; tags and fusion partners are left off. A change or cut given only in a name is not applied to a line headed by its entry.
UniProt P41146: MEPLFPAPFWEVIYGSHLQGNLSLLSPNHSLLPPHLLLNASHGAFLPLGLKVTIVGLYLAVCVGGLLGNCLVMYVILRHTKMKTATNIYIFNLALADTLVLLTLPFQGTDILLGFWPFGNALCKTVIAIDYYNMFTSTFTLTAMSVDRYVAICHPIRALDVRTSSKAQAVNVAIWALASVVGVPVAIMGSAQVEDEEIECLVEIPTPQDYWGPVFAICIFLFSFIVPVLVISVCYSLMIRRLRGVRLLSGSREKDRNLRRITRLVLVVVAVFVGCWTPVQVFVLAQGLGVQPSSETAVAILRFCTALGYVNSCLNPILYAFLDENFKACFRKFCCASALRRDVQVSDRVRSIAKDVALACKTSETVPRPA

Question: Which Ki does the source give for `O=C1NN=C(c2ccccc2)C12CCN(C1Cc3ccccc3C1)CC2` here?
Answer: The Ki was 43 nM.

Question: Which Ki does the source give for `O=C1NN=C(c2ccccc2)C12CCN(C1CCc3ccccc3C1)CC2` (stereo not drawn) here?
Answer: The Ki was 52.3 nM.

Question: `O=C1NN=C(c2ccccc2)C12CCN(C1Cc3cccc4cccc1c34)CC2` (stereo not drawn) was tested. Which Ki did it give?
Answer: Its Ki is 0.06 nM.

Source: patent US6635653B2 (priority 2001, dated 2003)
